1 compound from ChEMBL document CHEMBL3286130, “8-Substituted 2-alkynyl-N(9)-propargyladenines as A2A adenosine receptor antagonists” (Bioorg Med Chem, 2014) can be followed below.

Test [1] concerns HEK293. In words: Selectivity ratio of Ki for human adenosine A1 receptor expressed in CHOK1 cells to Ki for human adenosine A2A receptor expressed in HEK293 cells. Format: cell-based.
In test [2] the test system is HEK293. In words: Selectivity ratio of Ki for human adenosine A2B receptor expressed in HEK293 cells to Ki for human adenosine A2A receptor expressed in HEK293 cells. Format: cell-based.

With `C#CCn1c(Br)nc2c(N)nc(C#CCCCCCC)nc21`, the Ratio Ki in the test with HEK293 [1] was 10; with HEK293 [2], 1300.
